The list shows a part of the results, in another mix than the full data. Activity calls are given as the source filed them. Rule as the data show it: active = inhibition above about 50%; inactive = the rest.
Target: Histone-lysine N-methyltransferase NSD2 (Homo sapiens) (UniProt O96028)
Assay: blockers of NSD2 lysine methylation activity – biochemical, AlphaScreen, single concentration, set 2, primary screen (AID 743445)
Conditions: NSD2 peptide methylation, 120 min, at 12.5 µM, hits give high values

Chains of the proteins cited; added tags and fusions are not shown. Lines headed by an entry give the natural chain unless they say otherwise; changes in a name come on top.
UniProt O96028: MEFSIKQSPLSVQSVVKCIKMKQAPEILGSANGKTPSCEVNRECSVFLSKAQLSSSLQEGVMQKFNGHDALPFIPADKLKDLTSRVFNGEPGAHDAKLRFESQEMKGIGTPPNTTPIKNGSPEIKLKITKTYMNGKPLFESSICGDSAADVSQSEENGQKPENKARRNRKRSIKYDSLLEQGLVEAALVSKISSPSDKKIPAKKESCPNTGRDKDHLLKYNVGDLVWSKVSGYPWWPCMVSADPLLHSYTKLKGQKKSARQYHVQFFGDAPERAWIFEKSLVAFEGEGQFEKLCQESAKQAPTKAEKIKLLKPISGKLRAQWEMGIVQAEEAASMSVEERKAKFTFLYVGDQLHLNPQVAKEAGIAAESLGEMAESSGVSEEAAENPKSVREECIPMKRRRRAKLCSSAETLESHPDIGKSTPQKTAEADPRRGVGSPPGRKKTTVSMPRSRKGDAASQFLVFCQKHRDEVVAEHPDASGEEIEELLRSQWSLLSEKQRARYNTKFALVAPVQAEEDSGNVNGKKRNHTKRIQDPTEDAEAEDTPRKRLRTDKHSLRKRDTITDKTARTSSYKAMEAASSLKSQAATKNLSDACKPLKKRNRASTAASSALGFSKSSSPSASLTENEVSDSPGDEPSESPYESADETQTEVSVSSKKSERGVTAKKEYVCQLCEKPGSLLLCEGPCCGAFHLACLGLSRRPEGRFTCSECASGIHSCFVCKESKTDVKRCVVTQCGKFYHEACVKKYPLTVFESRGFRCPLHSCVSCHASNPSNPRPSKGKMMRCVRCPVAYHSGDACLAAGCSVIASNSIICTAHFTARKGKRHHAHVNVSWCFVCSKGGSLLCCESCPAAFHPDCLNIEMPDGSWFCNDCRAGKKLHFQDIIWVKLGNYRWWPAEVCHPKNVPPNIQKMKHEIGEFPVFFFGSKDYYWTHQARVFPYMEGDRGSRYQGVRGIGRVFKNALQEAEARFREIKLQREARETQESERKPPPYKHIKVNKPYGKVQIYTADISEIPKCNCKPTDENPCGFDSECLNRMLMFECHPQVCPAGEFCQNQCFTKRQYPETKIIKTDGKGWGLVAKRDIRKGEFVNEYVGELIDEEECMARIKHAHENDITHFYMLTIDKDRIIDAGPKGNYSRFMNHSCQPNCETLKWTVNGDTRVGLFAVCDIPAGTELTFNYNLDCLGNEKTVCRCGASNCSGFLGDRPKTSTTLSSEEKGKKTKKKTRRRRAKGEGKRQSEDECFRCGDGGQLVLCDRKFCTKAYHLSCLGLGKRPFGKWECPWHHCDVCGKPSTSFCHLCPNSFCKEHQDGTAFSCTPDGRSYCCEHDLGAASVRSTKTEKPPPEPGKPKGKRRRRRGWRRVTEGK

Row | Compound | inhibition
1 | CC(NC(=O)COC(=O)C(O)(c1ccccc1)c1ccccc1)c1ccccc1 (stereo unspecified) | inactive: -3.15%
2 | Cc1ccccc1OP(=O)(Nc1ccccn1)Oc1ccccc1C | inactive: 20.5%
3 | O=c1c2cc([N+](=O)[O-])ccc2[nH]c2c([N+](=O)[O-])cc([N+](=O)[O-])cc12 | inactive: -4.19%
4 | CN(C)C(=O)Oc1noc2ccccc12 | inactive: -3.35%
5 | COC(=O)c1cc2c(s1)N=C(c1ccccc1)N(C)P2(=O)N1CCOCC1 (stereo unspecified) | inactive: 14.7%
6 | CC(=O)NC(SC(=S)N(CC(C)C)CC(C)C)C(Cl)(Cl)Cl (stereo unspecified) | inactive: 5.41%
7 | Cc1ccc(OP(=O)(Nc2ccccn2)Oc2ccc(C)cc2)cc1 | inactive: -2.27%
8 | O=C(OC1CN2CCC1CC2)c1ccccc1 (stereo unspecified) | inactive: -0.823%
9 | O=P1(N(CCCl)CCCl)OCCC2CCCCN21 (stereo unspecified) | inactive: -0.802%
10 | CCNC(=S)/N=C(\N)N[N+](=O)[O-] | inactive: -0.03%
11 | O=C(NC1CCS(=O)(=O)C1)NP(=S)(Oc1ccccc1)Oc1ccccc1 (stereo unspecified) | inactive: 2.71%
12 | c1ccc(-c2nn[nH]n2)c(-c2nn[nH]n2)c1 | inactive: -5.05%
13 | Cc1ccc(NP(=O)(Oc2cccc(C)c2)Oc2cccc(C)c2)nc1 | inactive: -3.94%
14 | CC(=O)Nc1ccc([As](=O)(O)O)c(O)c1 | inactive: 0.481%
15 | CC(=O)Nc1ccc(Oc2c([N+](=O)[O-])cc([N+](=O)[O-])cc2[N+](=O)[O-])cc1 | inactive: 4.74%
16 | CC(=O)c1ccc(N2CC2c2ccncc2)cc1 (stereo unspecified) | inactive: 7.56%
17 | N#C/C(=C\c1ccc(N(CCBr)CCBr)cc1)C(N)=O | inactive: 9.27%
18 | COC(=O)C1(C)COP(=O)(NCc2ccccc2)OC1 (stereo unspecified) | inactive: -1.05%
19 | Cc1ccccc1CN(C)C(=O)COC(=O)C(O)(c1ccccc1)c1ccccc1 | inactive: 0.035%
20 | CCc1cc(O)c([N+](=O)[O-])c(C)c1[N+](=O)[O-] | inactive: 1.39%
21 | CC(C)(C)C(=O)NC(Sc1ccccc1)C(Cl)(Cl)Cl (stereo unspecified) | inactive: -1.55%
22 | O=P1(Nc2nc3ccc(Cl)cc3s2)COc2ccccc2O1 (stereo unspecified) | inactive: 17.9%
23 | CCOc1ccc(C2=NCC(CBr)S2)cc1 (stereo unspecified) | inactive: 1.61%
24 | c1nnnn1CCn1cnnn1 | inactive: -1.96%
25 | CC(C)C(=O)NC(Sc1ccccc1)C(Cl)(Cl)Cl (stereo unspecified) | inactive: -2.64%
26 | O=P(Nc1nccs1)(c1ccccc1)c1ccccc1 | inactive: -1.47%

Row | Compound | inhibition
27 | C/C(N)=N\P(=O)(OCc1ccccc1)OCc1ccccc1 | inactive: 1.04%
28 | C(Cc1nn[nH]n1)Cc1nn[nH]n1 | inactive: -1.07%
29 | Nc1ccc([As](=O)(O)c2ccc([N+](=O)[O-])cc2)cc1 | inactive: -3.88%
30 | O=C(OC1CN2CCC1CC2)c1cccc(Cl)c1 (stereo unspecified) | inactive: 1.56%
31 | O=[N+]([O-])c1ccc(O)c(/C=N/Nc2ccc([N+](=O)[O-])cc2[N+](=O)[O-])c1 | inactive: 8.43%
32 | CC(=O)NC(SC(=S)N(C)C)C(Cl)(Cl)Cl (stereo unspecified) | inactive: -1.42%
33 | O=[N+]([O-])c1ncn(CCn2cnc([N+](=O)[O-])n2)n1 | inactive: -3.48%
34 | O=P(Nc1nc2ccccc2s1)(c1ccccc1)c1ccccc1 | inactive: -5.3%
35 | COc1ccc(N)c([N+](=O)[O-])c1[N+](=O)[O-] | inactive: 11.1%
36 | Nc1ccc(CCCCOc2ccccc2)cc1 | inactive: 18.1%
37 | O=P(Nc1ccccn1)(c1ccc(Br)cc1)c1ccc(Br)cc1 | inactive: -7.9%
38 | CN(C)C1(CNC(=O)c2ccc(Cl)c(S(N)(=O)=O)c2)CCCCC1 | inactive: -4.47%
39 | COC(=O)C1(C)COP(=O)(Nc2ccccc2)OC1 (stereo unspecified) | inactive: -1.25%
40 | O=[N+]([O-])c1cccc(NC2=NCC(CBr)S2)c1 (stereo unspecified) | inactive: -0.858%
41 | O=C(O)CNc1ccc([As](=O)(O)O)cc1 | inactive: -3.72%
42 | CC(C)(C)C(=O)NC(Sc1ccncn1)C(Cl)(Cl)Cl (stereo unspecified) | inactive: 32.6%
43 | O=C(Nc1cc([As](=O)(O)O)ccc1O)c1ccccc1 | inactive: 1.91%
44 | O=P1(N(CCCl)CCCl)OCCCS1 (stereo unspecified) | inactive: -2.08%
45 | CC(C)c1nc(Nc2ccccc2)n(P(=O)(N(C)C)N(C)C)n1 | inactive: -0.877%
46 | CC(C)=N/N=C(\N)N[N+](=O)[O-] | inactive: -3%
47 | CN(C)C(=O)OCCc1n(C)cc[n+]1C | inactive: -0.99%
48 | CC1CCN(C(=O)Oc2c(Cl)cc(Cl)c3cccnc23)CC1 | inactive: -1.19%
49 | c1cc(-c2nn[nH]n2)ccc1-c1nn[nH]n1 | inactive: -0.983%
50 | Nc1ccc([As](=O)(O)c2ccc(N)cc2)cc1 | inactive: -0.47%
51 | CCN(/C(=N/P(=O)(N1CCOCC1)N1CCOCC1)N1CCOCC1)c1ccc(OC)cc1 | inactive: 0.663%
